## scFv variants of Ab-14 (light chain) against a SARS-CoV-2 spike peptide

Source: Li et al. 2023 (doi:10.1038/s41467-023-39022-2), MIT Lincoln Laboratory and A-Alpha Bio; data file from the FLAb repository.

The target is the same throughout: PDVDLGDISGINAS, from the HR2 region of SARS-CoV-2 spike.

The variants keep the heavy chain, the linker and the frameworks of Ab-14 (scFv order VH, a (GGGGS)3 linker, VL).
VH: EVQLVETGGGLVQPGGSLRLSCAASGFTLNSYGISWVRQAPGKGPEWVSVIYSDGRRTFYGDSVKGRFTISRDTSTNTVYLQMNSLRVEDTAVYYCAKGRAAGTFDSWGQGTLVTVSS
VL: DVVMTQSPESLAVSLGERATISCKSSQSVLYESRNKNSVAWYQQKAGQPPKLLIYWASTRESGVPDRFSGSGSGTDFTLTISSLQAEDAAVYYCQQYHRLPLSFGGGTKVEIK

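The parent was found by panning a naive human phage display library on the peptide. The variants were designed computationally from a first round of random CDR variants and then made and measured. Their group label is 14L_En_HC (En: ensemble of fine-tuned language models; HC: hill climbing; a sequence that several methods proposed may carry one label only). The assay is AlphaSeq: two haploid yeast populations carry antibody and antigen on their surface. The frequency of each diploid, read from paired DNA barcodes, reflects how well the two displayed proteins bind. Each replicate has its own calibration line, from reference interactions of the BCL2 family. There are six technical replicates.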

Variants are written as CDR1, CDR2 and CDR3 of the light chain (limits as in the source). Parent: KSSQSVLYESRNKNSVA, WASTRES, QQYHRLPLS.
The read-out is the apparent dissociation constant on a log10 scale (nM): the lower, the stronger.
The mean shown is taken over the replicates in which the pair was detected.
Where no diploid with the target was found in that replicate, the entry reads "nd": below detection, most likely a poor binder, though not proof of it.
A sequence measured in both rounds can read differently, since the two assays cover different ranges.

CDR-L1	CDR-L2	CDR-L3	log10 Kd (nM) by replicate	mean, log10 nM	empty controls
ILYDSVGTLSRNKNSVA	DNSTRCS	QQYDRLPLS	1.82 2.21 2.11 2.46 3.28 3.64	2.59	2 of 18 (2.22)
KISYMGEHFSTNHSAIA	QADTREQ	QQYHRLPIS	1.24 2.33 2.42 2.08 1.35 1.90	1.89	0 of 18
NISQMFFMETKNVNNVA	QTSTREE	QDYHRLPLS	-0.05 -0.22 -0.19 0.55 0.88 0.91	0.31	0 of 18
TLTQVTMVESYNKDSVA	QASTRLE	QDYHRLPLS	1.08 0.26 0.43 0.21 0.84 0.45	0.54	0 of 18
SLMQVGGYESNHKNSIA	DLRTRES	QQYHRLPLS	0.64 0.56 0.55 0.41 0.62 0.67	0.57	2 of 18 (2.85)
KISQNMGETQRNKHSVA	EVSLVPA	QQYWRLPLS	2.12 1.50 nd 1.23 nd 1.36	1.56	0 of 18
HVSEMIFAQMKARNSVA	ENNTREA	QQYDRLPLS	nd 2.73 1.79 4.05 2.61 2.70	2.78	1 of 18 (1.88)
KLREIIHVESKQKNNVA	DNSTRES	QDYHRLPLS	nd 2.22 1.56 1.48 2.16 1.70	1.82	0 of 18
KLRQVTGYESYNRNSVA	QTSTRAS	QDYHRLPLS	1.70 1.64 1.60 1.87 1.39 1.26	1.58	4 of 18 (2.91)
KLSQYVGGETRNKSSLA	DNNTRES	QQYERLPLS	2.94 nd nd 2.50 nd 2.68	2.70	0 of 18
KISQVAMTTGKLKNSVA	NAYNRVQ	QQYHRLPLS	1.08 0.73 0.70 0.79 0.79 1.06	0.86	1 of 18 (1.98)
MLSDTVMQGSYSRNSVA	QESTRAE	QQYHHLPLS	0.44 0.24 0.30 0.18 0.41 0.48	0.34	4 of 18 (3.14)
SLYDATMMESRNKNPIA	DVSTRPS	QQYHRLPLS	0.04 -0.29 -0.22 -0.38 -0.45 -0.16	-0.24	1 of 18 (3.33)
TVTQVTMVESYNKNSVA	QASTRLE	QDYHRLPLS	nd nd nd nd 1.99 nd	1.99	0 of 18
KIGHGLTTESRNRNSVA	QTETRVS	QHYHRLPLS	0.05 -0.18 0.24 -0.33 -0.45 0.32	-0.06	2 of 18 (2.00)
TLGDVTRMESNKKNSIA	DMSTRES	QQYHRLPLS	0.73 0.49 0.39 0.15 0.11 0.41	0.38	1 of 18 (4.27)
KITGQYRYEQLSKNSIA	EAQTRLK	QQYHRLPLS	0.20 0.19 0.39 0.30 0.36 0.59	0.34	4 of 18 (2.41)
MISDLTMYGSRNVNSVA	DLSMRGS	QQYHRLPLS	0.39 0.18 0.30 0.06 0.40 0.20	0.26	1 of 18 (3.23)
QLYAVQDMTSKNNNSVA	EQSTREN	QQYHRLPLS	2.27 1.45 0.71 3.09 0.94 1.04	1.58	4 of 18 (3.37)
MISQMFEGLSHSKNPVA	QVSTREE	QQYHRLPLS	nd 1.46 1.77 nd 1.81 2.07	1.78	0 of 18
KISMSYRYQSQNKNSIA	EMSRREN	QQYHRLPLS	0.89 0.78 0.45 0.60 0.48 0.77	0.66	0 of 18
QLGAVQDMTSKNKNSIA	EQSTREN	QQYHRLPLS	0.07 0.64 0.31 0.44 0.62 0.60	0.45	0 of 18
KLSQSVKMESFVKDNVA	ENSTREA	QDYHRLPLS	0.83 1.32 1.62 1.38 1.72 1.98	1.48	1 of 18 (2.54)
KLSQVTEYEMHNKDNVA	DLTTRGS	QDYHRLPLS	-0.45 1.01 -0.23 0.11 0.90 0.68	0.34	0 of 18
NVGQEMLGESRNKNSVA	HQSTRED	QHYHRLPLS	1.74 1.55 1.41 1.16 1.21 1.42	1.42	3 of 18 (3.17)
TISYSANMTGLNRNSVA	QAEERLE	QQYHRLPLS	1.02 0.62 0.64 0.77 0.72 0.56	0.72	0 of 18
TLGTSTLEESRNKNSVA	EVSLRES	QSYNRLPLS	2.07 1.89 nd 2.04 1.80 3.17	2.19	0 of 18
IISQSFLGEYHNKNNVA	QTSERGS	QQYDRLPLS	-0.47 -0.48 -0.73 -0.49 -0.63 -0.53	-0.56	1 of 18 (2.95)
MISDMGLHDSRLQDSVA	NNSTREA	QQYDRLPLS	nd nd 1.65 nd nd 2.29	1.97	0 of 18
KLGQMVLTGAYVSNSVA	QMSTRVN	QQYHRLPLM	0.16 0.37 0.49 -0.14 0.13 0.17	0.20	1 of 18 (2.39)
TLVQSVMGSSRTKNSVA	NAETRES	QHYHRLPLS	1.78 2.36 2.19 1.56 2.88 2.01	2.13	1 of 18 (2.60)
KISQMVTYESTWHNAIA	QTSEREP	QQYHRLPFS	0.42 0.52 0.14 0.50 0.09 0.73	0.40	0 of 18
NISQMFLMETKNVNNVA	QTSTREQ	QDYHRLPLS	0.07 0.02 0.10 -0.05 -0.01 0.17	0.05	1 of 18 (3.41)
KVSDMMAFLSRNRNSVA	DNSTRGE	QQYHRLPLS	0.01 0.18 -0.32 -0.13 -0.16 0.27	-0.03	2 of 18 (2.14)
MFSQLVYTGSHTRNAVA	QASTREN	QQYHHLPLS	0.68 0.85 0.62 1.29 1.39 1.08	0.98	0 of 18
TISQSWNMTSRGINSVA	QAEMRES	QQYDRLPLS	1.66 1.93 1.77 2.80 1.86 3.33	2.23	0 of 18
KIGQMVTGETHNKNSIA	QMTTREG	QQYHRLPLS	0.48 0.81 0.36 0.43 0.68 0.42	0.53	0 of 18
ALGDVTRMESNKKNSIA	DMSTREN	QQYHRLPLS	0.13 0.26 -0.16 0.00 0.11 0.33	0.11	0 of 18
KLGQSTAMTSRMKNNVA	DLNERER	QQYHRLPLS	0.38 0.14 -0.05 0.01 0.08 0.25	0.14	0 of 18
TVSQVHEMLSHNKNSVA	DMNTREQ	QQYDRLPLS	2.04 1.28 0.85 1.45 1.44 nd	1.41	0 of 18
KLYQSMGYLSRQKNSIA	DMSRREN	QQYHRLPLS	0.43 0.04 -0.07 -0.05 0.07 0.26	0.12	0 of 18
KISGYLNKEQKNKNSVA	EMVNRES	QQYDRLPLS	0.55 0.14 0.56 0.48 0.57 0.42	0.45	0 of 18
QIYAVQDMTSKNSNNVA	EQSTREN	QQYHRLPLS	0.53 0.30 0.52 0.59 0.67 1.07	0.61	2 of 18 (2.42)
MISDLMLYGSRASNPIA	NASTREY	QQYHRLPLE	0.86 0.52 0.62 0.99 1.17 1.02	0.87	1 of 18 (1.91)

For reference, 4 entries of the list once more:

CDR-L1	CDR-L2	CDR-L3	log10 Kd (nM) by replicate	mean, log10 nM	empty controls
TISYSANMTGLNRNSVA	QAEERLE	QQYHRLPLS	1.02 0.62 0.64 0.77 0.72 0.56	0.72	0 of 18
KLSQSVKMESFVKDNVA	ENSTREA	QDYHRLPLS	0.83 1.32 1.62 1.38 1.72 1.98	1.48	1 of 18 (2.54)
KISQVAMTTGKLKNSVA	NAYNRVQ	QQYHRLPLS	1.08 0.73 0.70 0.79 0.79 1.06	0.86	1 of 18 (1.98)
KISQMVTYESTWHNAIA	QTSEREP	QQYHRLPFS	0.42 0.52 0.14 0.50 0.09 0.73	0.40	0 of 18

The authors averaged sequences with at least three values out of six and counted those with two or fewer as poor binders.
Of ten entries with the parent sequence, four were seen in most replicates (averages 0.34 to 2.37), three in one and three in none, so single entries are noisy.
As a blank, each scFv also met three strains without target: over all light chain designs, 4% of these pairings were detected, typically at 2.64 and seldom below 1.59. The control count says in how many pairings with the empty strains this scFv gave a signal, with their mean in brackets.